Test results: US11896417B2, “Time-varying kinetic modeling of high temporal-resolution dynamic pet data for multiparametric imaging” (The Regents of the University of California, priority 2018, dated 2024)

Assays:
[1] = human, in vivo
[2] = in vivo

E (FDG extraction fraction) [1]: 0.38±0.08
F (blood flow) [1]: 1.62 ± 0.43 mL/g/min
Tc (transit time) [1]: 13.00 ± 3.06 s
fv (fractional blood volume) [1]: 0.07±0.05
k2 (tissue-to-blood delivery rate) [1]: 0.81 ± 0.28 min⁻¹
myocardial FDG extraction fraction E [2]: < 0.3
Substance: ^18F-fluorodeoxyglucose [FDG]
